Data taken from US20040110681A1, “Method to identify targeting molecules” (priority 2002, published 2004).

Test system: brain, lung, liver, kidney, blood and spleen
Experiment: Pharmacokinetic (PK) analysis of T7-CAGALCY and T7-lacZ phage, plaque assay
Assay type: in vivo, FVB female mice
Protocol: A3-T7 was amplified in the host strain BLT-5615 in the presence of 1 mM IPTG and purified. T7-lacZ phage were amplified by large scale plating on LB plates. The plates were incubated at 25° C. overnight, and phage were eluted with phage extraction buffer (20 mM Tris-HCl, pH 8.0, 100 mM NaCl, 6 mM MgSO4) overnight at 4° C. with gentle rocking. The extracted phage were pooled and purified. In the PK study, in paragraph A below, three mice were used per time point, co-injected with 1×10^10 pfu of each phage. Time points were 2 min, 10 min, 30 min, 1 hr, 2 hr, 4 hr, 6 hr, 12 hr, and 24 hr.
1×10^10 pfu of T7-CAGALCY and T7-lacZ phage were co-injected into FVB female mice. Mice were anesthetized with Avertin 2-4 minutes before the scheduled harvest time (the mice assigned to the 2 minute time-point were anesthetized prior to administration of the phage). The brain, lung, liver, kidney, blood and spleen were harvested at 2 min, 10 min, 30 min, 1 hr, 2 hr, 4 hr, 6 hr, 12 hr, and 24 hr. The phage contents in each organ were determined by plaque assay in the presence of X-gal in top agar.

[1] = 10 min after 1 × 10^10 of each phage per mouse
[2] = 4 hrs after 1 × 10^10 of each phage per mouse
[3] = 24 hrs after 1 × 10^10 of each phage per mouse

Which half-life in blood (1×10^10 pfu of each phage co-injected) does the source give for CAGALCY [T7-A3] here?
The half-life in blood was 8.9 min.

And the “Yield of phage recovered from blood” value [1]?
The value was 1.8 × 10^9 ± 2.4 × 10^8 pfu/mL.

And the “Yield of phage recovered from brain” value [1]?
The value was 3.9 × 10^6 ± 5.7 × 10^5 pfu/gm.

What about the “Yield of phage recovered from kidney” value [1] of the same substance?
Its value is 1.6 × 10^8 ± 6.2 × 10^7 pfu/gm.

And the “Yield of phage recovered from liver” value [1]?
The value was 6.0 × 10^9 ± 5.1 × 10^9 pfu/gm.

What about the “Yield of phage recovered from lung” value [1] of the same substance?
The value was 9.9 × 10^7 ± 2.7 × 10^7 pfu/gm.

And the “Yield of phage recovered from spleen” value [1]?
The value was 1.7 × 10^9 ± 3.0 × 10^8 pfu/gm.

What about the “decrease of number of phage in the blood” value (2 hr post injection) of the same substance?
The value was “more than 3 logs”.

And the “Yield of phage recovered from blood” value [2]?
Its value is 1.2 × 10^6 ± 6.1 × 10^5 pfu/mL.

What about the “Yield of phage recovered from brain” value [2] of the same substance?
The value was 1.7 × 10^6 ± 1.3 × 10^6 pfu/gm.

What about the “Yield of phage recovered from kidney” value [2] of the same substance?
The value was 5.1 × 10^7 ± 3.0 × 10^6 pfu/gm.

And the “Yield of phage recovered from liver” value [2]?
The value was 4.1 × 10^7 ± 1.2 × 10^7 pfu/gm.

And the “Yield of phage recovered from lung” value [2]?
Its value is 5.2 × 10^7 ± 1.7 × 10^7 pfu/gm.

And the “Yield of phage recovered from spleen” value [2]?
The value was 2.6 × 10^8 ± 2.0 × 10^7 pfu/gm.

And the “Yield of phage recovered from blood” value [3]?
Its value is 1.6 × 10^4 ± 1.7 × 10^4 pfu/mL.

What about the “Yield of phage recovered from brain” value [3] of the same substance?
The value was 1.5 × 10^5 ± 7.7 × 10^4 pfu/gm.

What about the “Yield of phage recovered from kidney” value [3] of the same substance?
The value was 3.4 × 10^6 ± 3.8 × 10^6 pfu/gm.

And the “Yield of phage recovered from liver” value [3]?
Its value is 3.4 × 10^5 ± 1.9 × 10^5 pfu/gm.

And the “Yield of phage recovered from lung” value [3]?
Its value is 5.2 × 10^6 ± 5.2 × 10^6 pfu/gm.

What about the “Yield of phage recovered from spleen” value [3] of the same substance?
The value was 1.9 × 10^6 ± 1.6 × 10^5 pfu/gm.

What about the “tissue half-life in the brain” value (mouse, in vivo) of the same substance?
Its value is 8.3 h.

And the “tissue half-life in the kidney” value (mouse, in vivo)?
Its value is 7.8 h.

And the “tissue half-life in the liver” value (mouse, in vivo)?
Its value is 1.3 h.

What about the “tissue half-life in the lung” value (mouse, in vivo) of the same substance?
Its value is 5.5 h.

What about the “tissue half-life in the spleen” value (mouse, in vivo) of the same substance?
Its value is 5.8 h.
